Experimental data taken from US11958855B2, “Aurora kinase inhibitors for inhibiting mitotic progression” (Millennium Pharmaceuticals, Inc., priority 2006, dated 2024).

Target: T1, Aurora A (Homo sapiens, UniProt O14965)
T1 construct: Human tumor cells (HCT-116, obtained from ATCC) were grown on 96-well dishes; host or cells: HCT-116
T1 sequence (O14965 1-403): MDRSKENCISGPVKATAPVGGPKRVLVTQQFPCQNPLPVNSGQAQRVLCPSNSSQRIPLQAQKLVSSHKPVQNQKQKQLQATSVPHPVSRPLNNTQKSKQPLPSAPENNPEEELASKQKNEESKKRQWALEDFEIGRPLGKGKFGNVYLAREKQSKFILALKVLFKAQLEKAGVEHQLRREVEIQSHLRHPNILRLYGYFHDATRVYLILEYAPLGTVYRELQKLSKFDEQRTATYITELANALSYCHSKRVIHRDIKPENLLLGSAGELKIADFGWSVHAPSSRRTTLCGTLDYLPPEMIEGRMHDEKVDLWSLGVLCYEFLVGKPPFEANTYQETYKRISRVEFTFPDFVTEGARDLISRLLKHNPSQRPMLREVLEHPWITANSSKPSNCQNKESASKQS
Assay: pT288 Aurora A autophosphorylation assay
Assay type: cell-based
Details: HCT-116 cells, 60 minutes treatment

O=C(O)c1ccc(Nc2ncc3c(n2)-c2ccc(Cl)cc2C(c2ccccc2F)=NC3)cc1 [i]
IC50: 0.18 µM
